Earlier results as cited in patent US11913033B2, “Luciferases and methods for using same” (LIGHT BIO, INC., priority 2017, dated 2024).

Sequences of proteins named here, by UniProt entry; tags and fusion partners are left off.
UniProt P08659, whole entry: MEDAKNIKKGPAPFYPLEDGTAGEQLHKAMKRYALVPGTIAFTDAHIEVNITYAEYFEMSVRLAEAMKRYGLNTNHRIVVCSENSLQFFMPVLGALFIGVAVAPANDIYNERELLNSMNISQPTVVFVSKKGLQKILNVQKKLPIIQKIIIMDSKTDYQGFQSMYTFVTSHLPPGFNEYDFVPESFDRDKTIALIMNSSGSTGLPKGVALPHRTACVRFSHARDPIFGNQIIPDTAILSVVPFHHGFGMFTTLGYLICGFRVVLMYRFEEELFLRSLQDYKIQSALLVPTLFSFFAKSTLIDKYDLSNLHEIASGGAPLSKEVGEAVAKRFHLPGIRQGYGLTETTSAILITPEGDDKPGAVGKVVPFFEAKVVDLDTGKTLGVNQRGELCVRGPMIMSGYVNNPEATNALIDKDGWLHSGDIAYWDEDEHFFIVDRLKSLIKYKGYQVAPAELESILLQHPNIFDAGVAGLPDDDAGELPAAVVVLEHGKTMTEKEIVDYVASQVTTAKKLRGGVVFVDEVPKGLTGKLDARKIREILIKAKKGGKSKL

Molecular target: Luciferase from Photinus pyralis (Photinus pyralis, UniProt P08659)
Conditions: cited from earlier work

| SMILES | quantum efficiency of the reaction (Seliger and McElroy 1960) | inhibition of the D-luciferin reaction (Lembert 1996) |
| --- | --- | --- |
| O=C(O)[C@H]1CSC(c2nc3ccc(O)cc3s2)=N1 [D-luciferin] | 0.88+−0.25 |  |
| O=C(O)[C@@H]1CSC(c2nc3ccc(O)cc3s2)=N1 [L-luciferin] |  | strong competitive inhibitor |
